Test: Blood levels after oral gavage
Assay type: in vivo
Conditions: adult rats orally gavaged
From the text: In the treatment of certain localized conditions, the degree of hydrophilicity of the CMT can be of lesser importance. […].

## 4-hydroxy-4-de(dimethylamino)tetracycline [CMT-6]
  Blood levels: no detectable blood levels

— EP1296703B1, “NON-ANTIBACTERIAL TETRACYCLINE AS ANTI-FUNGAL AGENTS” (Liu, Yu, priority 2000, dated 2001)
